Screening results: PubChem BioAssay, Broad Institute
Rows were chosen to be rich in hits. Some 1.5% of all compounds tested hit in one or more screens of this group.
UUG fidelity: alters start codon recognition fidelity in yeast; S. cerevisiae UUG-firefly luciferase reporter, luminescence/redox ratio; activity score, % at 18.7 µM; actives 0.13% (n = 350,000);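 active means replicate mean at a twofold rise or more, about +100% in these data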;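 further: firefly luciferase made from a UUG start codon reports start codon fidelity; reporter light over untreated wells divided by growth signal over untreated wells; some hits fall short of that in this replicate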
Env fusion inh: inhibitors of HIV-1 Env-driven cell-cell fusion, primary screen, HeLa-JRFL effector, CEM21 target cells, luciferase | AID 651610, 2012 | hit rate 1.1% among 360,000 | inhibition, % at 12.3 µM;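 active = mean replicate inhibition score of at least 50 and every replicate individually at or above 50; inconclusive = only one of the two criteria met; inactive = mean below 50 and not all replicates reaching 50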;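 also: 0% = plate neutral controls and 100% = maraviroc near 300 nM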
FN deposit inh: inhibitors of fibronectin matrix deposition, primary screen, AH1F cells, Alexa488-fibronectin fluorescence, plate reader; AH1F fibroblasts, overnight; inhibition, % at 12.6 µM; hit rate 0.086% among 350,000; AID 743247, 2014;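 active = mean inhibition across replicates of 30% or more, regardless of how many single replicates reach that level; inconclusive = mean under 30% yet at least half of replicates reach 30%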;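 also: positive control wells lacked labelled fibronectin entirely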
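material = AH1F fibroblast monolayer depositing Alexa488-labelled fibronectin into matrix | amount = 10000 AH1F cells/well | buffer or medium = DMEM plus 2% serum, read in PBS | incubation = 1 h cell adhesion before compound, then overnight fibronectin incubation | detection = fluorescence at 485 nm excitation, 525 nm emission | evaluation = percent inhibition as loss of matrix-bound fibronectin fluorescence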
Cneo AK release: Cryptococcus neoformans cell lysis inducers, primary screen, AK release luminescence, single concentration | C. neoformans lysis, adenylate kinase release luminescence, 4 h; normalised: neutral wells 0, clomiphene wells 100 | lysis activity, % at 15 µM | hit rate 0.2% among 360,000 | AID 651654, 2012;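 active = mean lysis activity across replicates of at least 80%, whatever share of replicates individually reach that level; inactive = mean lysis activity below 80%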
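Material: C. neoformans cells; Schedule: 4 h static compound exposure, 37 °C, read 1 h post-reagent; Measured by: adenylate kinase release luminescence; Read-out: signal increase indicating cell lysis; Controls: Clomiphene as positive lysis control.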
PGC1a acetyl inh: inhibitors of PGC1a acetylation signal, primary screen, cell-based, U2OS, AlphaScreen, inhibitor mode; AlphaScreen anti-acetyl-lysine; with virally co-expressed GCN5 acetyltransferase; hit rate 0.17% among 350,000; inhibition, % at 15.6 µM;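 active = every replicate shows inhibition of at least 40%; inconclusive = mean inhibition at least 40% but some replicate below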;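 also: 0% = neutral control wells and 100% = positive control wells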
miR-122 sensor: miR-122 Renilla sensor signal increase in Huh7, primary screen, miR-122 inhibitor project, cell-based, single point, plate reader; hit rate 0.3% among 340,000; Huh7 miR-122 Renilla luciferase sensor, 48 h; neutral wells = 0, positive control = 100; AID 602342, 2012; activation (reporter increase), % at 12.5 µM;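 active = mean replicate activation score at least 90 and every replicate individually at or above 90; inconclusive = only one of the two criteria met; inactive = neither criterion met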;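 also: higher luciferase means less miR-122 activity so hits act as miR-122 inhibitors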
* = called active by the depositor; ? = inconclusive; . = no result; [ ] = remark or other dose.

Molecule | PGC1a acetyl inh | Env fusion inh | Cneo AK release | miR-122 sensor | UUG fidelity | FN deposit inh
C[C@@H]1CN([C@@H](C)CO)C(=O)c2cccc(NC(=O)C3CCOCC3)c2O[C@H]1CN(C)S(=O)(=O)c1ccc(F)cc1 | 16 | 8[16.7 µM] | 3 | 4[16.7 µM] | -1 | .
CC(C)C[C@@H](COCc1cccc(Cl)c1)N1CCN(C(=O)c2cccc(C(F)(F)F)c2)CCC1=O | . | 58* | . | . | . | 0
CC(C)CC(COCc1cccc(Cl)c1)N1CCN(C(=O)c2ccc(C(F)(F)F)cc2)CCC1=O (stereo not given) | -6 | 59* | 1 | 0 | 0 | -2
C(=N\Nc1nc2ccccc2[nH]1)/c1ccc2ncccc2c1 | 49* | -99 | 5 | -14 | -16 | 8
C[C@H](CO)N1C[C@H](C)[C@H](CN(C)C(=O)C2CC2)Oc2ncc(Br)cc2C1=O | -9 | -6[16.7 µM] | . | 12[16.7 µM] | -8 | -6
O=[N+]([O-])c1ccc(N2CCC(=NOCc3ccc(Cl)cc3)CC2)cc1 | . | 75* | -2 | -14 | -3 | -3
O=C1c2cccc3c(N4CCCCC4)ccc(c23)C(=O)N1c1ccc(O)cc1 | . | -5 | . | . | . | 1
O=C(CCc1ccc(S(=O)(=O)NC2CCCCC2)cc1)N(Cc1ccccc1)Cc1ccccc1 | -18 | . | -2 | 99* | -3 | .
Cc1ccc(S(=O)(=O)NC2CCCCC2)cc1 | -2 | . | 2 | 60 | 9 | .
CSc1ccc(S(=O)(=O)NC2CCCCCC2)cc1 | -16 | . | 16 | 103* | -4 | .
O=C(Nc1ccc(S(=O)(=O)NC2CCCCC2)cc1)c1ccco1 | 1 | . | 1 | 69 | -28 | .
O=C(Nc1ccc(S(=O)(=O)NC2CCCCC2)cc1)c1ccc(Br)o1 | -1 | . | 2 | 128* | -3 | .
C[C@H](CO)N1C[C@H](C)[C@H](CN(C)C(=O)C2CCCCC2)OCCCC[C@H](C)Oc2ccc(NC(=O)Nc3ccc4c(c3)OCO4)cc2C1=O | 10 | 78*[16.7 µM] | -1 | -9[16.7 µM] | -4 | .
C[C@@H]1CN([C@H](C)CO)C(=O)c2cc(NC(=O)Nc3ccc4c(c3)OCO4)ccc2O[C@@H](C)CCCCO[C@H]1CN(C)Cc1ccc2c(c1)OCO2 | 5 | 1[16.7 µM] | 5 | 9[16.7 µM] | 17 | 2
C[C@@H]1CN([C@@H](C)CO)C(=O)c2cc(NC(=O)Nc3ccc4c(c3)OCO4)ccc2O[C@@H](C)CCCCO[C@H]1CN(C)Cc1ccc(Cl)c(Cl)c1 | -14 | 67*[16.7 µM] | 4 | -3[16.7 µM] | 6 | .

Record cards, from the list above:
`C[C@@H]1CN([C@H](C)CO)C(=O)c2cc(NC(=O)Nc3ccc4c(c3)OCO4)ccc2O[C@@H](C)CCCCO[C@H]1CN(C)Cc1ccc2c(c1)OCO2` reads PGC1a acetyl inh: 5; Env fusion inh: 1[16.7 µM]; Cneo AK release: 5; miR-122 sensor: 9[16.7 µM]; UUG fidelity: 17; FN deposit inh: 2
`O=C1c2cccc3c(N4CCCCC4)ccc(c23)C(=O)N1c1ccc(O)cc1` reads PGC1a acetyl inh: .; Env fusion inh: -5; Cneo AK release: .; miR-122 sensor: .; UUG fidelity: .; FN deposit inh: 1

Next compounds
Molecule | PGC1a acetyl inh | Env fusion inh | Cneo AK release | miR-122 sensor | UUG fidelity | FN deposit inh
COc1ccc(NC(=O)Nc2ccc3c(c2)C(=O)N([C@H](C)CO)C[C@H](C)[C@H](CN(C)Cc2ccc(Cl)c(Cl)c2)OCCCC[C@H](C)O3)cc1 | -12 | 91*[16.7 µM] | -1 | -4[16.7 µM] | 2 | .
C[C@H](CO)N1C[C@H](C)[C@H](CN(C)Cc2ccc3c(c2)OCO3)OCCCC[C@H](C)Oc2ccc(NC(=O)Nc3ccc4c(c3)OCO4)cc2C1=O | -19 | 66*[16.7 µM] | 3 | 5[16.7 µM] | 13 | 7
COc1ccc(NC(=O)Nc2ccc3c(c2)C(=O)N([C@@H](C)CO)C[C@H](C)[C@@H](CN(C)Cc2ccc(Cl)c(Cl)c2)OCCCC[C@@H](C)O3)cc1 | 5 | 14[16.7 µM] | 0 | 3[16.7 µM] | -6 | .
COc1ccc(NC(=O)N2CCCCN3[C@@H](CO)[C@@H](c4ccc(C#Cc5ccccc5)cc4)[C@@H]3C2)cc1 | -44 | . | 9 | -11[16.7 µM] | -8 | .
Cc1noc(C)c1NC(=O)N(C)C[C@@H]1OCCCC[C@@H](C)Oc2ccc(NC(=O)Cc3ccccc3)cc2C(=O)N([C@H](C)CO)C[C@@H]1C | 0 | -2[16.7 µM] | -2 | 1[16.7 µM] | -11 | .
CC(C)NC(=O)Nc1ccc2c(c1)C(=O)N([C@@H](C)CO)C[C@H](C)[C@@H](CN(C)Cc1ccc3c(c1)OCO3)OCCCC[C@@H](C)O2 | 3 | -26[16.7 µM] | 102* | 4[16.7 µM] | 11 | -9
C[C@H]1CCCCO[C@@H](CN(C)Cc2ccccc2)[C@@H](C)CN([C@@H](C)CO)C(=O)c2cc(NC(=O)Nc3ccc4c(c3)OCO4)ccc2O1 | 20 | 57*[16.7 µM] | 3 | -6[16.7 µM] | -7 | -6
C=C(C)C(=O)Oc1ccc(N2C(=O)CCC2=O)cc1 | -11 | 1 | . | . | . | -3
COc1ccc(NC(=S)Nc2cccc3cnccc23)cc1 | 10 | -58 | 1 | -2 | -16 | .
COc1ccccc1NC(=S)Nc1cccc2cnccc12 | . | 58* | . | . | . | -9
CCCCNS(=O)(=O)c1ccc2nc(SCC(=O)Nc3sccc3C#N)[nH]c2c1 | -10 | 12 | -4 | 202* | -7 | -3
CCCCNS(=O)(=O)c1ccc2nc(SCC(N)=O)[nH]c2c1 | -2 | 16 | -1 | 153* | -16 | 4
CCCCNS(=O)(=O)c1ccc2nc(SCC(=O)c3ccccc3OC)[nH]c2c1 | -2 | . | 0 | ? | -19 | .
COc1ccc(NC(=O)c2c(Nc3ccccc3)sc(C(=O)c3ccc(F)cc3)c2N)cc1 | 0 | 91* | -1 | -11 | -13 | -1
COc1ccccc1NC(=O)CN(c1ccc(C23CC4CC(CC(C4)C2)C3)cc1)S(C)(=O)=O | -9 | 104* | 3 | -4 | -18 | -11
C[C@H]1CCCCO[C@@H](CN(C)C(=O)Nc2ccc(C(F)(F)F)cc2)[C@@H](C)CN([C@@H](C)CO)C(=O)c2cc(NS(=O)(=O)c3ccccc3)ccc2O1 | -5 | 64*[16.7 µM] | 2 | 19[16.7 µM] | 29 | 0
C[C@H](CO)N1C[C@H](C)[C@@H](CN(C)C(=O)Nc2ccc(C(F)(F)F)cc2)OCCCC[C@H](C)Oc2ccc(NS(=O)(=O)c3ccc(F)cc3)cc2C1=O | 3 | 70*[16.7 µM] | -1 | -2[16.7 µM] | -8 | 4
CCOc1ccccc1C(=O)NCC(=O)Nc1ncccc1C | 3 | . | -4 | -4 | -9 | 2
Cc1cc(S(=O)(=O)NC(=O)[C@H]2O[C@@H](n3ccc(=O)[nH]c3=O)[C@H](O)[C@@H]2O)ccc1Br | . | -22 | . | . | . | -2
CC(C)CCC(CC(C)O)C(=O)NNC(=S)Nc1ccccc1 (stereo not given) | . | -3 | 2 | 152* | -24 | -18
CCOc1ccc(OCC)c(NC(=O)CSc2nc3ccccc3c(=O)n2C)c1 | 9 | 91* | 2 | -3 | -1 | .
CCOc1ccc(OCC)c(NC(=O)CSc2nc3cccnc3n2C)c1 | -6 | 23 | -2 | -9 | -13 | 5
COCCCN=Cc1c(C)[nH]n(-c2ccc(Br)c(C)c2)c1=O | . | -26 | . | . | . | -8
CC(C)C#Cc1ccc2c(c1)O[C@H](CN(C)C(=O)Cc1ccccn1)[C@H](C)CN([C@H](C)CO)S2(=O)=O | -2 | -9[16.7 µM] | 101* | 67[16.7 µM] | 42 | 6

With a hit mark in PGC1a acetyl inh (from the list above):
compound | PGC1a acetyl inh | Env fusion inh | miR-122 sensor | UUG fidelity
C(=N\Nc1nc2ccccc2[nH]1)/c1ccc2ncccc2c1 | 49* | -99 | -14 | -16
